According to PubChem BioAssay AID686996 (Broad Institute, 2013):
The entries are a selection whose mix differs from that of the whole data set. Calls of active or inactive are those of the source.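 The calls were made as follows: active = mean inhibition across replicates at least about 35%, with every replicate also reaching that limit (limit read from the data); inconclusive = only one of the two criteria met; inactive = neither criterion met.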

Sequences of proteins named here, by UniProt entry; tags and fusion partners are left off. Residues count along the entry.
UniProt P55212, 24-179 limits assumed: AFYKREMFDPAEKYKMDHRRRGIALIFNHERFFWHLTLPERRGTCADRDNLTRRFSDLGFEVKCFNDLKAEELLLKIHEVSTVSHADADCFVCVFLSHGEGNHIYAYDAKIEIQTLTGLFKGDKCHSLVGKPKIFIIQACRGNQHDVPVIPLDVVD
UniProt P55212, 194-293 limits assumed: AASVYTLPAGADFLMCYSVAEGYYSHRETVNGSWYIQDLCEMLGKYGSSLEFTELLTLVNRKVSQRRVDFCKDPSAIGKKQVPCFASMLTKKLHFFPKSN

biological target: Caspase-6 (Homo sapiens) (UniProt P55212); test: inhibition of CASP6 peptide cleavage – biochemical, VEID-R110 fluorescence, single point, set 2, primary screen (AID 686996); details: purified caspase-6, Z-VEID-R110 cleavage fluorescence; at 12.5 µM; hits give high values;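 also: 0% = median of neutral control wells and 100% = no fluorescence left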

Compound | inhibition
CCC(=O)N(c1ccccc1)C1(COC)CCN(CCn2nnn(CC)c2=O)CC1 | inactive: -1.58%
CCC(=O)N(c1ccccc1)C1(COC)CCN(CCc2cccs2)CC1 | inactive: -3.73%
